Source: PubChem BioAssay AID602440 (Sanford-Burnham Center for Chemical Genomics, 2012)
The list shows a part of the results, in another mix than the full data. Activity calls are given as the source filed them. Rule as the data show it: active = inhibition mostly above about 40% (no sharp cut-off); inactive = mostly below about 27%.

Chains of the proteins cited; added tags and fusions are not shown.
UniProt Q96LD8, whole entry: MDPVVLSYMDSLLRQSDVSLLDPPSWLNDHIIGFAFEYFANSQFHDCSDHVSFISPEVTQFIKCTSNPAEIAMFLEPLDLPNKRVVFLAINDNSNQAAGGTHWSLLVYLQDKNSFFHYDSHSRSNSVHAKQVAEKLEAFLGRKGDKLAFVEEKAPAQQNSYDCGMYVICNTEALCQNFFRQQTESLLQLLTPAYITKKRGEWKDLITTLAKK

molecular target: Sentrin-specific protease 8 (Homo sapiens) (UniProt Q96LD8); assay: human SENP8 protease inhibitors, primary screen, biochemical, fluorescence, Nedd8 protein substrate, uHTS (AID 602440); details: recombinant SENP8, Nedd8 substrate fluorescence; at 20 µM; active compounds read high

Row | Compound | inhibition
1 | CCC(=O)N(c1ccccc1)C1(COC)CCN(CCc2cccs2)CC1 | inactive: 2.8%
2 | CCC(=O)N(c1ccccc1)C1(COC)CCN(CCn2nnn(CC)c2=O)CC1 | inactive: 4.4%
